Measured values from EP4813992A1, “POLYARYL DERIVATIVE AND USE THEREOF” (Hangzhou HealZen Therapeutics Co., Ltd., priority 2023, dated 2025).

Amino acid sequences for entries named in this document (tags omitted).
UniProt Q92918, whole entry: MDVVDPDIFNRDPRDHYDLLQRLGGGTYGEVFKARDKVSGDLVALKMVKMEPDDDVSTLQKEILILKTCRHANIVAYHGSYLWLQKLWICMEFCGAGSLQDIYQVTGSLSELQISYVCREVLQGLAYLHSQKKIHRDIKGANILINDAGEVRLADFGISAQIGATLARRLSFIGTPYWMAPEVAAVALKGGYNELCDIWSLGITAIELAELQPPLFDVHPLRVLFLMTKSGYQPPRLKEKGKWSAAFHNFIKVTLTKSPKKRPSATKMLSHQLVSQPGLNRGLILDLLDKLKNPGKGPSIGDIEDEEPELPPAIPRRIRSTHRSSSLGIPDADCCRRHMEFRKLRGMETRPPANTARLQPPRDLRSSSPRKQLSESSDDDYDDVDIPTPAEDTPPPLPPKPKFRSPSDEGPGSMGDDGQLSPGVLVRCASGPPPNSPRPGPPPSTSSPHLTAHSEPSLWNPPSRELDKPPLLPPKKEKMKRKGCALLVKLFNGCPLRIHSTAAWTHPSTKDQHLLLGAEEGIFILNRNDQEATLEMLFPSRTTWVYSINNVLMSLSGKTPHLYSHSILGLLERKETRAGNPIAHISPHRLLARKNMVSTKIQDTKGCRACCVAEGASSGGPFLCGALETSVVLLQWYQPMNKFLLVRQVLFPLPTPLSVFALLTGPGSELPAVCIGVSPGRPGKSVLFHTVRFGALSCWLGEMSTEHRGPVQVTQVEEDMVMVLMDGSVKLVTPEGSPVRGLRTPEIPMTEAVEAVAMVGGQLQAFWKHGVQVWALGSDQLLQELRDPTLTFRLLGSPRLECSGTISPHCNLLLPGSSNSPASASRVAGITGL

Key:
[1] = molecular target: T1, HPK1 kinase (Homo sapiens, UniProt Q92918); test: Lantha screen assay, inhibitory effect on HPK1 kinase
[2] = system: HPK1/GLK; test: Selectivity of degrading HPK1/GLK in Jurkat cells (Western blot, 24 h); details: HPK1/GLK Fold = DC50 (HPK1) / DC50 (GLK)
[3] = molecular target: T1, HPK1 kinase; test: Activity of degrading HPK1 in Jurkat cells (Western blot, 24 h); assay type: cell-based; details: HPK1 protein degradation, class symbols
[4] = read-out: HPK1 IC50, initial compound concentration 1 µM

| Compound | IC50 [1, 4] [nM] | HPK1/GLK Fold [2] | DC50 [3] [nM] | IC50 ([1]; read-out: HPK1 IC50, initial compound concentration 1 µM, tested form: free base) [nM] |
| --- | --- | --- | --- | --- |
| Cc1cc(-c2cnc3[nH]cc(-c4ccc(C(C)(F)F)cc4)c3n2)cc(C)c1C1=CCN(CC2CN(c3ccc(N4CCC(=O)NC4=O)c(F)c3)C2)CC1 | < 10 | ++++ (1000≤Fold) | < 10 |  |
| Cc1cc(N2CC3C(CN4CC=C(c5c(C)cc(-c6cnc7[nH]cc(-c8ccc(C(=O)N(C)C)cc8)c7n6)cc5C)CC4)C3C2)ccc1N1CCC(=O)NC1=O (stereo not drawn) | < 10 |  |  |  |
| Cc1cc(-c2cnc3[nH]cc(-c4cnc5c(c4)CN(C)CC5)c3n2)cc(C)c1C1=CCN(CC2CN(c3ccc(C(=O)NC4CCC(=O)NC4=O)cc3)C2)CC1 (stereo not drawn) | < 10 |  |  |  |
| Cc1cc(N2CC(CN3CC=C(c4c(C)cc(-c5cnc6[nH]cc(-c7cnn(C8CN(C(C)C)C8)c7)c6c5)cc4C)CC3)C2)ccc1N1CCC(=O)NC1=O |  |  |  | < 10 |

Read-outs that look alike come from different tables or passages of the source.
